The assay concerns the target T1, μ-opioid receptor (Rattus norvegicus, UniProt P33535).
T1 construct: aliquots of frozen rat and guinea pig brain membrane homogenates were thawed and suspended in 50 mM Tris-HCl buffer; from tissue; host or cells: Wistar rat brain membrane homogenate
Format: binding. The note with it: MOR; rat brain membrane; from IC50 by Cheng–Prusoff; read-out: Ki + S.E.M., displacement of [3H]DAMGO. (Displacement assays read how much labelled ligand stays bound in the presence of the test substance.)

Chains of the proteins cited; added tags and fusions are not shown.
UniProt P33535, whole entry: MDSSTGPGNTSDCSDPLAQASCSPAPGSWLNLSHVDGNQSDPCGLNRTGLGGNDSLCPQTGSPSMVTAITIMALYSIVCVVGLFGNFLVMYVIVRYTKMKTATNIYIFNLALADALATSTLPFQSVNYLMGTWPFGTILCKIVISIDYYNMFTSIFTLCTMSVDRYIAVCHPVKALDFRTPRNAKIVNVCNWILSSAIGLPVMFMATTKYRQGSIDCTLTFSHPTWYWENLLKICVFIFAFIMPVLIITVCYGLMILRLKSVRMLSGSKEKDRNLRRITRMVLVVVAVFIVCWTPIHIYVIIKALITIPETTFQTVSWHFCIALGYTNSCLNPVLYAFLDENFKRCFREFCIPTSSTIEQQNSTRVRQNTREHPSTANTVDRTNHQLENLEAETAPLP

What is called Ki is the dissociation constant of the complex between target and ligand, obtained from inhibition or displacement.

`C[C@@H](NC(=O)[C@@H](N)Cc1ccc(O)cc1)C(=O)NCC(=O)N(C)[C@@H](Cc1ccccc1)C(=O)NCCO` [DAMGO, Tyr-D-Ala-Gly-(NMe)Phe-Gly-ol, reference compound]: the Ki worked out at 0.9 ± 0.28 nM.

These data come from publication PMC7072329, “Discovery of Kynurenines Containing Oligopeptides as Potent Opioid Receptor Agonists” (Biomolecules, 2020).
